Measured values: patent US6936585B2, “Corticotropin releasing factor 2 receptor agonists” (priority 2002, dated 2005)

Columns and labels:
[1] = target: T1, CRF2R (Homo sapiens, UniProt Q13324); experiment: CRF2R agonist activation (EC50 / Emax), called comparative CRF binding; format: cell-based; conditions: read-out: CRF2R Emax
T1 sequence (Q13324 1-411): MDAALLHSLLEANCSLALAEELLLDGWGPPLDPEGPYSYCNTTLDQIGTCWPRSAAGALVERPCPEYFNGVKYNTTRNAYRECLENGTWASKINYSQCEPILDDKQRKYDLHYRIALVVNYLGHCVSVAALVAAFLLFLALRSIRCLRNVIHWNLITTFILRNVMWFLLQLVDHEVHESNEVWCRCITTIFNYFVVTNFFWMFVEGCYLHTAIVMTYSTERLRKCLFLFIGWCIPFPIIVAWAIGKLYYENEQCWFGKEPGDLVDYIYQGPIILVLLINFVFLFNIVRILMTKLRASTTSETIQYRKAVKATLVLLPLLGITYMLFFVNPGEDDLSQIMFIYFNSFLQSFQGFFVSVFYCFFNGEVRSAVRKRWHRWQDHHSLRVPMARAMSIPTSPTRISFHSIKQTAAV
How it was run: (§1)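 Agonism at each human CRF receptor subtype is inferred from increased cAMP relative to vehicle, using cells expressing that subtype and either lysate cAMP measurement or a cAMP response element reporter.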

[2] = target: T2, CRF1R (Homo sapiens, UniProt P34998); experiment: CRF1R agonist activation (EC50 / Emax), called comparative CRF binding; format: cell-based; conditions: read-out: CRF1R Emax
T2 sequence (P34998 24-415): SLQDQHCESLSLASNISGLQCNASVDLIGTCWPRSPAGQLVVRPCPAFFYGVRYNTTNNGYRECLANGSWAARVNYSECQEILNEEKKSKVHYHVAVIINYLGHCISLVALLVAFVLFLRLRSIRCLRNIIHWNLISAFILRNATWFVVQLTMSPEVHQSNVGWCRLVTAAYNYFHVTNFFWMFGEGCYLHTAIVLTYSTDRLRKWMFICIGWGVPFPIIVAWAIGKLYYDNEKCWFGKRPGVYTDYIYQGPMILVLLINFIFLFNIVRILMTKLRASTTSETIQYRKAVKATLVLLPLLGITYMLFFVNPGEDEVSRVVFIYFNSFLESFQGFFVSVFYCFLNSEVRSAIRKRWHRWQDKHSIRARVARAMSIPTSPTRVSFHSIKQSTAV
How it was run: as §1

Structure (SMILES) | Emax [1] [%] | Emax [2] [%]
CC[C@H](C)[C@H](NC(=O)[C@@H](NC(=O)[C@H](CC(=O)O)NC(=O)[C@H](CC(C)C)NC(=O)[C@H](CC(C)C)NC(=O)[C@H](CC(C)C)NC(=O)[C@H](CCCNC(=N)N)NC(=O)[C@H](CC(N)=O)NC(=O)[C@H](CC(N)=O)NC(=O)[C@H](C)NC(=O)[C@H](C)NC(=O)[C@H](CCC(N)=O)NC(=O)[C@H](CCC(N)=O)NC(=O)[C@H](CCCCN)NC(=O)[C@H](CCC(=O)O)NC(=O)[C@H](CCCCN)NC(=O)[C@H](CCC(=O)O)NC(=O)[C@H](CCC(N)=O)NC(=O)[C@H](CCCCN)NC(=O)[C@H](CCC(=O)O)NC(=O)[C@@H](NC(=O)[C@H](CCC(=O)O)NC(=O)[C@@H](NC(=O)[C@H](CCSC)NC(=O)[C@H](CCCCN)NC(=O)[C@H](CCCNC(=N)N)NC(=O)[C@H](CC(C)C)NC(=O)[C@H](CC(C)C)NC(=O)[C@H](CC(C)C)NC(=O)[C@@H](NC(=O)[C@@H]1CCCN1C(=O)[C@H](CC(C)C)NC(=O)[C@H](CC(=O)O)NC(=O)[C@@H](NC(=O)[C@H](CO)NC(=O)[C@@H](NC(=O)[C@@H]1CCCN1C(=O)[C@@H]1CCCN1C(=O)CNC(=O)[C@@H]1CCC(=O)N1)[C@@H](C)CC)[C@@H](C)CC)[C@@H](C)O)[C@@H](C)CC)[C@@H](C)CC)[C@@H](C)O)C(N)=O [compound 51] | 100 | 48
CC[C@H](C)[C@H](NC(=O)[C@@H](NC(=O)[C@H](C)NC(=O)[C@H](CC(C)C)NC(=O)[C@H](CC(C)C)NC(=O)[C@H](CC(C)C)NC(=O)[C@H](C)NC(=O)[C@H](CC(N)=O)NC(=O)[C@H](CC(N)=O)NC(=O)[C@H](C)NC(=O)[C@H](C)NC(=O)[C@H](CCC(N)=O)NC(=O)[C@H](CCC(N)=O)NC(=O)[C@H](CCCCN)NC(=O)[C@H](CCC(=O)O)NC(=O)[C@H](CCCCN)NC(=O)[C@H](CCC(=O)O)NC(=O)[C@H](CCC(N)=O)NC(=O)[C@H](CCCCN)NC(=O)[C@H](CCC(=O)O)NC(=O)[C@@H](NC(=O)[C@H](CCC(=O)O)NC(=O)[C@@H](NC(=O)[C@H](CCSC)NC(=O)[C@H](CCCCN)NC(=O)[C@H](CCCNC(=N)N)NC(=O)[C@H](CC(C)C)NC(=O)[C@H](CC(C)C)NC(=O)[C@H](Cc1c[nH]cn1)NC(=O)[C@H](CC(C)C)NC(=O)[C@@H]1CCCN1C(=O)[C@H](CC(C)C)NC(=O)[C@H](CC(=O)O)NC(=O)[C@@H](NC(=O)[C@H](CO)NC(=O)[C@@H](NC(=O)[C@@H]1CCCN1C(=O)[C@@H]1CCCN1C(=O)CNC(=O)[C@@H]1CCC(=O)N1)[C@@H](C)CC)[C@@H](C)CC)[C@@H](C)CC)[C@@H](C)CC)[C@@H](C)O)C(N)=O [compound 241] | 99 | 99
CC[C@H](C)[C@H](NC(=O)[C@@H](NC(=O)[C@H](CC(=O)O)NC(=O)[C@H](CC(C)C)NC(=O)[C@H](CC(C)C)NC(=O)[C@H](CC(C)C)NC(=O)[C@H](CCCNC(=N)N)NC(=O)[C@H](CC(N)=O)NC(=O)[C@H](CC(N)=O)NC(=O)[C@H](C)NC(=O)[C@H](C)NC(=O)[C@H](CCC(N)=O)NC(=O)[C@H](CCC(N)=O)NC(=O)[C@H](CCCCN)NC(=O)[C@H](CCC(=O)O)NC(=O)[C@H](CCCCN)NC(=O)[C@H](CCC(=O)O)NC(=O)[C@H](CCC(N)=O)NC(=O)[C@H](CCCCN)NC(=O)[C@H](CCC(=O)O)NC(=O)[C@@H](NC(=O)[C@H](CCC(=O)O)NC(=O)[C@@H](NC(=O)[C@H](CCSC)NC(=O)[C@H](CCCCN)NC(=O)[C@H](CCCNC(=N)N)NC(=O)[C@H](CC(C)C)NC(=O)[C@H](CC(C)C)NC(=O)[C@H](Cc1c[nH]cn1)NC(=O)[C@@H](NC(=O)[C@@H]1CCCN1C(=O)[C@H](CC(C)C)NC(=O)[C@H](CC(=O)O)NC(=O)[C@@H](NC(=O)[C@H](CO)NC(=O)[C@@H](NC(=O)[C@@H]1CCCN1C(=O)[C@@H]1CCCN1C(=O)CNC(=O)[C@@H]1CCC(=O)N1)[C@@H](C)CC)[C@@H](C)CC)[C@@H](C)CC)[C@@H](C)CC)[C@@H](C)CC)[C@@H](C)O)C(N)=O [compound 77] | 100 | 5
CC[C@H](C)[C@H](NC(=O)[C@H](CCCNC(=N)N)NC(=O)[C@H](C)NC(=O)[C@H](CC(N)=O)NC(=O)[C@@H](NC(=O)[C@@H](NC(=O)[C@H](C)NC(=O)[C@H](CCC(N)=O)NC(=O)[C@H](CCC(N)=O)NC(=O)[C@H](CCCCN)NC(=O)[C@H](CCC(=O)O)NC(=O)[C@H](CCCCN)NC(=O)[C@H](CCC(=O)O)NC(=O)[C@H](CCC(N)=O)NC(=O)[C@H](CCCCN)NC(=O)[C@H](CCC(=O)O)NC(=O)[C@@H](NC(=O)[C@H](CCC(=O)O)NC(=O)[C@@H](NC(=O)[C@H](CCSC)NC(=O)[C@H](CCCCN)NC(=O)[C@H](CCCNC(=N)N)NC(=O)[C@H](CC(C)C)NC(=O)[C@H](CC(C)C)NC(=O)[C@H](CCC(N)=O)NC(=O)[C@@H](NC(=O)[C@@H]1CCCN1C(=O)[C@H](CC(C)C)NC(=O)[C@H](CC(=O)O)NC(=O)[C@@H](NC(=O)[C@H](CO)NC(=O)[C@@H](NC(=O)[C@@H]1CCCN1C(=O)[C@@H]1CCCN1C(=O)CNC(=O)[C@@H]1CCC(=O)N1)[C@@H](C)CC)[C@@H](C)CC)[C@@H](C)CC)[C@@H](C)CC)[C@@H](C)CC)[C@@H](C)O)[C@@H](C)O)C(=O)N[C@@H](CC(C)C)C(=O)N[C@@H](C)C(=O)N[C@@H](CCCNC(=N)N)C(=O)N[C@H](C(N)=O)C(C)C [compound 150] | 70.5 | 5.7
CC[C@H](C)[C@H](NC(=O)[C@@H](NC(=O)[C@H](CC(=O)O)NC(=O)[C@H](CC(C)C)NC(=O)[C@H](CC(C)C)NC(=O)[C@H](CCCNC(=N)N)NC(=O)[C@H](C)NC(=O)[C@H](CC(N)=O)NC(=O)[C@H](CC(N)=O)NC(=O)[C@H](C)NC(=O)[C@H](C)NC(=O)[C@H](CCC(N)=O)NC(=O)[C@H](CCC(N)=O)NC(=O)[C@H](CCCCN)NC(=O)[C@H](CCC(=O)O)NC(=O)[C@H](CCCCN)NC(=O)[C@H](CCC(=O)O)NC(=O)[C@H](CCC(N)=O)NC(=O)[C@H](CCCCN)NC(=O)[C@H](CCC(=O)O)NC(=O)[C@@H](NC(=O)[C@H](CCC(=O)O)NC(=O)[C@@H](NC(=O)[C@@H](NC(=O)[C@H](CCCCN)NC(=O)[C@H](CCCNC(=N)N)NC(=O)[C@H](CC(C)C)NC(=O)[C@H](CC(C)C)NC(=O)[C@H](Cc1c[nH]c2ccccc12)NC(=O)[C@H](Cc1ccc(O)cc1)NC(=O)[C@@H]1CCCN1C(=O)[C@@H](NC(=O)[C@H](CC(=O)O)NC(=O)[C@@H](NC(=O)[C@H](CO)NC(=O)[C@@H](NC(=O)[C@@H]1CCCN1C(=O)[C@@H]1CCCN1C(=O)CNC(=O)[C@@H]1CCC(=O)N1)[C@@H](C)CC)[C@@H](C)CC)C(C)C)C(C)C)[C@@H](C)CC)[C@@H](C)CC)[C@@H](C)O)C(N)=O [compound 372] | 100 | 13
CC[C@H](C)[C@H](NC(=O)[C@@H](NC(=O)[C@H](CC(=O)O)NC(=O)[C@H](CC(C)C)NC(=O)[C@H](CC(C)C)NC(=O)[C@H](CC(C)C)NC(=O)[C@H](CCCNC(=N)N)NC(=O)[C@H](CC(N)=O)NC(=O)[C@H](CC(N)=O)NC(=O)[C@H](C)NC(=O)[C@H](C)NC(=O)[C@H](CCC(N)=O)NC(=O)[C@H](CCC(N)=O)NC(=O)[C@H](CCCCN)NC(=O)[C@H](CCC(=O)O)NC(=O)[C@H](CCCCN)NC(=O)[C@H](CCC(=O)O)NC(=O)[C@H](CCC(N)=O)NC(=O)[C@H](CCCCN)NC(=O)[C@H](CCC(=O)O)NC(=O)[C@@H](NC(=O)[C@H](CCC(=O)O)NC(=O)[C@@H](NC(=O)[C@H](CCSC)NC(=O)[C@H](CCCCN)NC(=O)[C@H](CCCNC(=N)N)NC(=O)[C@H](CC(C)C)NC(=O)[C@H](CC(C)C)NC(=O)[C@H](CCC(=O)O)NC(=O)[C@@H](NC(=O)[C@@H]1CCCN1C(=O)[C@H](CC(C)C)NC(=O)[C@H](CC(=O)O)NC(=O)[C@@H](NC(=O)[C@H](CO)NC(=O)[C@@H](NC(=O)[C@@H]1CCCN1C(=O)[C@@H]1CCCN1C(=O)CNC(=O)[C@@H]1CCC(=O)N1)[C@@H](C)CC)[C@@H](C)CC)[C@@H](C)O)[C@@H](C)CC)[C@@H](C)CC)[C@@H](C)O)C(N)=O [compound 71] | 56 | 6
